Among the data in US20170217976A1, “6-(AMINO ACID)-MORPHINAN DERIVATIVES IN COMBINATION WITH PERMEATION […] FOR USE AS AN ORALLY, […], TRA[…] NASALLY AD[…]” (C[…], priority 2014, published 2017) are Ki values, retold here.

Amino acid sequences for entries named in this document (tags omitted).
UniProt P33533, whole entry: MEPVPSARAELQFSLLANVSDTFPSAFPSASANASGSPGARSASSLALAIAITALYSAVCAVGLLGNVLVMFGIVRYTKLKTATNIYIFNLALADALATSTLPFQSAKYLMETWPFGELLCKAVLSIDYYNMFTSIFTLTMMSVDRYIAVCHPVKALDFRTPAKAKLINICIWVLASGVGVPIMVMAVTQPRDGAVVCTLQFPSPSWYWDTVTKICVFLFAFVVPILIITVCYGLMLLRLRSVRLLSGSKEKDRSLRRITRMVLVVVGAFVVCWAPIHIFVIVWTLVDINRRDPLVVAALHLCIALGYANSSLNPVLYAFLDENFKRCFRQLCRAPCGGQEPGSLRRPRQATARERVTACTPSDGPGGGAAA
UniProt P41144, whole entry: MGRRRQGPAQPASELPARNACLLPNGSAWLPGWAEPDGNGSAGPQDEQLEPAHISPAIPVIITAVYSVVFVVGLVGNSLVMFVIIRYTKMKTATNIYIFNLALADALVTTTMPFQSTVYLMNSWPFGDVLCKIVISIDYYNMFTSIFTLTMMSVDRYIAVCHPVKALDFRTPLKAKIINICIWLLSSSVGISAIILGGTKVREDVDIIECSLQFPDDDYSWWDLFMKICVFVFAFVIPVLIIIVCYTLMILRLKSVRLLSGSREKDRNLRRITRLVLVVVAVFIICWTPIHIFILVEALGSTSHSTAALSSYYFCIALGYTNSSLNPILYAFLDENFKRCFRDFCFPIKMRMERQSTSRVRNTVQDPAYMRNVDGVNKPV

One test deals with DOR (Rattus norvegicus, UniProt P33533). The test can be described thus: Opioid receptor binding, DOR, rat brain membranes. Conditions: read-out: Binding Ki DOR; Table 2-6, rat brain membranes.
Another test addresses KOR (Cavia porcellus, UniProt P41144). Briefly: Opioid receptor binding, KOR, guinea pig brain membranes. Particulars: read-out: Binding Ki KOR; Table 2-6, guinea pig brain membranes.

The term Ki denotes a measure of affinity in units of concentration, obtained from inhibition or displacement. As for `CO[C@@]12CC[C@H](NCCC(=O)OC(C)(C)C)[C@@H]3Oc4c(O)ccc5c4[C@@]31CCN(CC1CC1)[C@@H]2C5`, the inhibitory constant (Ki) was found to be 2.1 nM on DOR and 1.41 nM on KOR.
